## Apparent affinities of Ab-95 variants for a coronavirus HR2 peptide

The measurements come from Engelhart et al. 2022 (doi:10.1038/s41597-022-01779-4) through the FLAb antibody collection.

The target is the same throughout: PDVDLGDISGINAS, from the HR2 region of SARS-CoV-2 spike.

The variants keep the heavy chain, the linker and the frameworks of Ab-95 (scFv order VH, a 15-residue (Gly4Ser)3 linker, VL).
VH: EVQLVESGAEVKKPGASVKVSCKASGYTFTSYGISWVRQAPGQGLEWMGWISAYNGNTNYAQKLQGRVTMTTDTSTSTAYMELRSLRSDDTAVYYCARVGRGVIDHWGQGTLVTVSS
VL: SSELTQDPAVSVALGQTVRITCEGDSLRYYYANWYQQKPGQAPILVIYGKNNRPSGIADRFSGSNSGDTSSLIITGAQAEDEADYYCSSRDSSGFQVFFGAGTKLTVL

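The parent was found by panning a naive human phage display library on the peptide. Library AAYL52 holds single substitutions and randomly drawn double and triple substitutions in the CDRs. The assay is AlphaSeq: two haploid yeast populations carry antibody and antigen on their surface. After mating in shaken culture at 30 °C for 16 h, diploids were selected and their barcode pairs sequenced. Read counts were normalised to the haploid input and turned into Kd by a linear fit to BCL2-family pairs of known affinity, for each replicate. There are three technical replicates.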

Each variant is given by its three light chain CDRs, as the data file delimits them; those of the parent are EGDSLRYYYAN, GKNNRPS, SSRDSSGFQVF. Every variant below is changed at S92 of the VL (sequential numbering). Each Kd is an estimate from the mating assay, the geometric mean of the replicates in which the pair was seen; lower is stronger. "nd" marks a missing value. The strain was present, yet no cells mated with the target were sequenced in any replicate, which points to weak or no binding. Nonspecific signal, from three strains lacking the peptide, appeared in 28% of pairings of library AAYL52, centred on 8.2 µM (5% of these signals below 800 nM); values are not corrected for it.

With EGDSLRYAYAN | GKNNRPS | SSRDKSGFQVF the result was 12 nM (3 of 3 replicates). Variant EGDSLRYYYFN | GKNNRPS | SFRDHSGFQVF gave nd (0 of 3 replicates). Variant EGDSLRYYVAN | GKNNRPN | SSRDESGFQVF gave 770 nM (3 of 3 replicates). For EGDSLRYYYAN | GKNARPS | SSRDASGFQWF, the assay gave 1.3 µM (3 of 3 replicates). With EGDSLRYYYAN | GKNNRPS | NSRDHSGFQVF the result was 550 nM (2 of 3 replicates). Variant EGDSLRAYYAN | GKSNRPS | SSRDLSGFQVF showed 1.9 µM (2 of 3 replicates). Variant EGDSLRYYVAN | GKNNRPS | SSTDTSGFQVF showed 2.1 µM (1 of 3 replicates). Variant EGDSLRYYYAN | GKNNRPS | SSRDAYNFQVF gave 170 nM (3 of 3 replicates). With EGDSLRVYYAN | GKGNRPS | SSRDCSGFQVF the result was 1.3 µM (3 of 3 replicates).

Variant EGDTLRYYYAN | GKNNRPS | SCRDTSGFQVF showed 5.0 µM (3 of 3 replicates). With EGDSLRYYYAY | GKNNRPS | SSRCASGFQVF the result was 11 µM (1 of 3 replicates). Variant EGDSWRYYYAN | GKNNRPS | SARDGSGFQVF gave 1.9 µM (3 of 3 replicates). Variant EGDSLRYYYAN | GINNRPS | SERDESGFQVF showed 5.5 µM (2 of 3 replicates). For EGDSDRYYYAN | GKNNRPS | SSRDDSGFQVF, the assay gave 2.4 µM (3 of 3 replicates). Variant EGDSCRYYYAN | GKNNRPS | SSRRGSGFQVF showed 19 µM (1 of 3 replicates). With EGDSLRMYYAN | GKNNRPS | SSRDRSGFQVF the result was 260 nM (3 of 3 replicates). Variant EGDSKRYYYAN | GKNNRPS | SSRMFSGFQVF gave 12 µM (2 of 3 replicates). With EFDYLRYYYAN | GKNNRPS | SSRDASGFQVF the result was 1.1 µM (3 of 3 replicates).

For EGDSLRYYYAN | GKNNRPS | SSADMSGFTVF, the assay gave 630 nM (3 of 3 replicates). For EGDSLRYYYAN | GKNNRPS | SLRDTSGFQVP, the assay gave 4.4 µM (3 of 3 replicates). Variant EGDSLRYYYVN | GKNNRHS | SSRDQSGFQVF gave 1.7 µM (2 of 3 replicates). Variant EGDSLRYYYAN | GKNNRPS | ASRDGSGFYVF showed nd (0 of 3 replicates). Variant EEDSLRYYYAN | GKNNRPS | SSRDFDGFQVF showed 9.0 µM (2 of 3 replicates). Variant EGDSLRYGYAN | GKNNRPS | SSRDDSWFQVF gave 32 nM (3 of 3 replicates). Variant EGDSLRYYWAN | GKNNRPS | SSRDDSGFQVF showed 22 µM (2 of 3 replicates). Variant EGDSLRYYYAH | GKNHRPS | SSRDASGFQVF gave 2.5 µM (2 of 3 replicates). Variant AGDSLRYYYAN | GKNNRPS | ESRDVSGFQVF showed 200 nM (3 of 3 replicates).

For EGDSLPYYYAN | GKNNRPS | SSRDISGFQQF, the assay gave 31 µM (2 of 3 replicates). For EGDSLKYYYSN | GKNNRPS | SSRDMSGFQVF, the assay gave 270 nM (3 of 3 replicates). For EGDSDRYYYAN | GKNNRPS | SSRDTSGFQVF, the assay gave 6.4 µM (1 of 3 replicates). With EGDSLRYYYVN | GKNNRPF | SSRDGSGFQVF the result was 5.7 µM (3 of 3 replicates). For EGDSLRYYYSN | GKNQRPS | SSRDTSGFQVF, the assay gave 530 nM (3 of 3 replicates). For EGDSLKYYYAN | GKNNRPS | SSRDCSGFQPF, the assay gave 800 nM (3 of 3 replicates). Variant EGDSLRYRYAN | GKNVRPS | SSRDTSGFQVF showed 43 nM (3 of 3 replicates). Variant EGDSLRYYYAN | GKNNCPS | LSRDISGFQVF showed 4.5 µM (2 of 3 replicates). Variant EGDSLRYIYAN | GKNNRPS | SVRDHSGFQVF showed 370 nM (3 of 3 replicates).

With EGDSLRYFYAN | GKNNIPS | SSRDISGFQVF the result was 8.7 µM (1 of 3 replicates). For EGDSLRYYYAN | MKNNRPS | SSRDMSGFQVF, the assay gave nd (0 of 3 replicates). Variant EGDSLRYYYAN | GKNNRPS | SSRDGSGFQVQ showed 330 µM (1 of 3 replicates). Variant EGCSLRYYYAN | GKNNRCS | SSRDGSGFQVF showed 20 µM (1 of 3 replicates). Variant CGDSLRYYYAN | GKNNRPS | SSRDESGFQVY gave 6.5 µM (1 of 3 replicates). Variant VGDSARYYYAN | GKNNRPS | SSRDMSGFQVF gave 590 nM (3 of 3 replicates). For EGASLRYYYAN | GKNNRPS | SSRDQSGFLVF, the assay gave 860 nM (3 of 3 replicates). For EGDSLRYYYAN | GKENRPS | SSRDLSEFQVF, the assay gave 1.3 µM (1 of 3 replicates). With EGDSLRYYYAN | GKNIRPS | PSRDGSGFQVF the result was 310 nM (2 of 3 replicates).

Variant EGDSQRYYYAN | GPNNRPS | SSRDESGFQVF showed 230 nM (3 of 3 replicates). Variant EGDSLRYYYAK | GKNNRPE | SSRDKSGFQVF showed nd (0 of 3 replicates). For EGDSLSYYYHN | GKNNRPS | SSRDDSGFQVF, the assay gave 1.1 µM (2 of 3 replicates). Variant EGDSLRYYYAN | GKLNRPS | SSRDDDGFQVF showed 49 µM (2 of 3 replicates). With EGCSLRYYYAN | GKHNRPS | SSRDDSGFQVF the result was 1.8 µM (2 of 3 replicates). With EGDSLRYYYAN | GKNNRKE | SSRDCSGFQVF the result was 290 nM (3 of 3 replicates). Variant EGDSERYYYAN | GKNNRPS | SSRDKSGCQVF gave 7.5 µM (1 of 3 replicates).

Excerpt, the final 3 entries:

{"CDR-L1": "EGCSLRYYYAN", "CDR-L2": "GKHNRPS", "CDR-L3": "SSRDDSGFQVF", "Kd": "1.8 µM", "detected": "2 of 3"}
{"CDR-L1": "EGDSLRYYYAN", "CDR-L2": "GKNNRKE", "CDR-L3": "SSRDCSGFQVF", "Kd": "290 nM", "detected": "3 of 3"}
{"CDR-L1": "EGDSERYYYAN", "CDR-L2": "GKNNRPS", "CDR-L3": "SSRDKSGCQVF", "Kd": "7.5 µM", "detected": "1 of 3"}

In this assay the parent's reference entry averaged 200 nM; its copy inside this library read 180 nM.